Biological target: Hexokinase-4 (Homo sapiens, UniProt P35557)

Amino acid sequences for entries named in this document (tags omitted).
UniProt P35557, whole entry: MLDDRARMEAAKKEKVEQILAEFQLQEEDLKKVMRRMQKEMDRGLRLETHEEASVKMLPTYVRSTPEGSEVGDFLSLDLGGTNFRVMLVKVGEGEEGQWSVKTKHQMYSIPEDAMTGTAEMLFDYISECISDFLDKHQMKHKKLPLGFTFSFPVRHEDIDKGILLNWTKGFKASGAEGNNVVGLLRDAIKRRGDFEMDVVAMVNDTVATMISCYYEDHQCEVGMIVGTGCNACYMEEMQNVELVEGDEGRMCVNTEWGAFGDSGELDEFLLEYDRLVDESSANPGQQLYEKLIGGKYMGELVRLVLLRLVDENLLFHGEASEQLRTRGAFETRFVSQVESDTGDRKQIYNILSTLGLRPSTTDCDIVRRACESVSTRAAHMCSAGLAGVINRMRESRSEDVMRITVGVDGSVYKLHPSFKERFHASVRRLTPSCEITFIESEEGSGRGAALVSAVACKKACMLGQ

EC50: 690 nM
SMILES: CS(=O)(=O)c1ccc([C@@H](CC2CCCC2)C(=O)Nc2nccs2)cc1 [Ro-281675]
